{"source": "patent US20190010233A1", "key": {"[1]": {"molecular_target": "full length cyno PD-L1 on cells (cyno) (UniProt G7PSE7)", "assay": "FACS CHO-K1-cPD-L1, 0.14 nM mAb"}, "[2]": {"molecular_target": "full length cyno PD-L1 on cells (cyno) (UniProt G7PSE7)", "assay": "FACS CHO-K1-cPD-L1, 0.41 nM mAb"}, "[3]": {"molecular_target": "full length cyno PD-L1 on cells (cyno) (UniProt G7PSE7)", "assay": "FACS CHO-K1-cPD-L1, 3.70 nM mAb"}, "[4]": {"molecular_target": "full length cyno PD-L1 on cells (cyno) (UniProt G7PSE7)", "assay": "FACS CHO-K1-cPD-L1, 11.11 nM mAb"}, "[5]": {"molecular_target": "full length cyno PD-L1 on cells (cyno) (UniProt G7PSE7)", "assay": "FACS CHO-K1-cPD-L1, 33.33 nM mAb"}, "[6]": {"molecular_target": "full length cyno PD-L1 on cells (cyno) (UniProt G7PSE7)", "assay": "FACS CHO-K1-cPD-L1, 100.00 nM mAb"}, "[7]": {"molecular_target": "hPD-L2 (human) (UniProt Q9BQ51)", "assay": "ELISA, mAb concentration not given"}}}
{"substance": "chimeric anti-PD-L1 antibody 78B2D7", "values": [{"measurement": "Mean fluorescence intensity", "setting": "[1]", "value": 37.6}, {"measurement": "Mean fluorescence intensity", "setting": "[2]", "value": 71.6}, {"measurement": "Mean fluorescence intensity", "setting": "[3]", "value": 108}, {"measurement": "Mean fluorescence intensity", "setting": "[4]", "value": 101}, {"measurement": "Mean fluorescence intensity", "setting": "[5]", "value": 91.8}, {"measurement": "Mean fluorescence intensity", "setting": "[6]", "value": 96.2}, {"measurement": "OD450 nm", "setting": "[7]", "value": 0.218}]}
